Legend:
[1] = male Cynomolgus monkeys, two cassette microdose levels
[2] = female athymic nude mice

Substance: mithramycin SA-Trp [MTMSA-Trp]
- clearance lower, fold difference relative to MTM [1]: 2.5~7 fold
- clearance at 0.3 mg/kg, fold higher than average at 1–10 mg/kg [2]: approximately 1.7 fold

— PMC12197275, “Preclinical Pharmacokinetic Evaluation of Mithramycin and Mithramycin SA Tryptophan-Conjugated Analog” (Pharmaceutics, 2025)
